Target: T1, Recombinant human MPL (human, UniProt P40238 26-491, limits assumed)
T1 construct: also called hu-mpl; hu-MPL
T1 sequence (looked up): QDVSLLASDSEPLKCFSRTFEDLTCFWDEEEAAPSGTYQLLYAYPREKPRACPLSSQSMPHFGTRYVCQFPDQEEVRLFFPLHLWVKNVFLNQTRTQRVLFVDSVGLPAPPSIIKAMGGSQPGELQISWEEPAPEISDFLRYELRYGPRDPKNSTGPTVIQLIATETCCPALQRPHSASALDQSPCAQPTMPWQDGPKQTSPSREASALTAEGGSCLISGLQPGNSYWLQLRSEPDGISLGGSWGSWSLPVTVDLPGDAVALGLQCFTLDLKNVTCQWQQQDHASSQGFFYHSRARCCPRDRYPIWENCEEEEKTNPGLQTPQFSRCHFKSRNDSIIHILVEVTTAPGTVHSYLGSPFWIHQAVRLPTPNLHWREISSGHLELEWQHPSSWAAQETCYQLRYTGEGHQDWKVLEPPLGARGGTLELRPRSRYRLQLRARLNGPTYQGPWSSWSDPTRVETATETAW
Assay: SPR (BIACORE 3000), hu-mpl amine-coupled on CM5 chip, peptide injected 0.78-100 nM

Kd: 5.4 nM
B1: TMP1 (22-residue benchmark peptide) (peptide)
peptide: SAQGIEGPTLRQWLAARALETV
notes: also called TMP01
